Laboratory results taken from article PMC5643558, “Stabilization of phosphofructokinase 1 platelet isoform by AKT promotes tumorigenesis” (Nature Communications, 2017).

Legend:
[1] = target: T1, S-tagged PFKP S386A (human, UniProt Q01813 1-784, S386A); assay: pull-down; in vitro kinase reaction of purified S-tagged WT PFKP or PFKP S386A with or without active GST-AKT1, then incubation with purified His-TRIM21 and pull-down; details: both partners purified
T1 construct: PFKP, human; also called purified PFKP S386A; source: bacterially expressed, purified
T1 sequence (looked up): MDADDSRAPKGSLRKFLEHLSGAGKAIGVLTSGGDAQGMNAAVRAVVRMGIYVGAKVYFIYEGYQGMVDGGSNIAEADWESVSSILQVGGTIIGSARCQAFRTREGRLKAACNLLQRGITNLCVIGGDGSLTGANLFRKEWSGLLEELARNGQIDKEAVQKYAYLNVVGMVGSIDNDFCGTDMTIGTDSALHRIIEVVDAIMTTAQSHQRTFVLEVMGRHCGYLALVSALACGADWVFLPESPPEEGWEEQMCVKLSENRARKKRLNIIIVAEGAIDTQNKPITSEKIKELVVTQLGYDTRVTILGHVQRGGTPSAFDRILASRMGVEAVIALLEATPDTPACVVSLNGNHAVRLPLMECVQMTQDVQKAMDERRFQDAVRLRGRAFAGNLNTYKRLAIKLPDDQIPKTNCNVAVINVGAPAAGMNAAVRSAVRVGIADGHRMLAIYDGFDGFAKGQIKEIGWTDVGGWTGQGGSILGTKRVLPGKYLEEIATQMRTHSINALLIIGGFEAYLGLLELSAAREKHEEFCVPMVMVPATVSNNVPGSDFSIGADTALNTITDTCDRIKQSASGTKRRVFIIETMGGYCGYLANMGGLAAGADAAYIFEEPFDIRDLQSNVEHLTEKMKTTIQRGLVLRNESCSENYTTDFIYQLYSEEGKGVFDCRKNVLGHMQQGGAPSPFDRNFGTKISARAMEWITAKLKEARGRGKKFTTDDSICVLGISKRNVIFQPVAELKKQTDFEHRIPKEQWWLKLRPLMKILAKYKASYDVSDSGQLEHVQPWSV

[2] = target: T2, purified bacterially expressed S-tagged PFKP (human, UniProt Q01813 1-784); assay: pull-down; purified bacterially expressed S-tagged PFKP incubated with purified His-TRIM21; details: both partners purified
T2 construct: PFKP, human; Probably from the pET32a construct named in the methods (that vector would also add thioredoxin and a His tag); also called S-tagged WT PFKP; purified WT PFKP; source: bacterially expressed, purified
T2 sequence (looked up): T1 sequence (looked up) with A386S

- binding result [1]: binds
- binding result [2]: binds
B1: purified His-TRIM21 (enzyme, human, UniProt P19474 1-475, looked up)
chain: MASAARLTMMWEEVTCPICLDPFVEPVSIECGHSFCQECISQVGKGGGSVCPVCRQRFLLKNLRPNRQLANMVNNLKEISQEAREGTQGERCAVHGERLHLFCEKDGKALCWVCAQSRKHRDHAMVPLEEAAQEYQEKLQVALGELRRKQELAEKLEVEIAIKRADWKKTVETQKSRIHAEFVQQKNFLVEEEQRQLQELEKDEREQLRILGEKEAKLAQQSQALQELISELDRRCHSSALELLQEVIIVLERSESWNLKDLDITSPELRSVCHVPGLKKMLRTCAVHITLDPDTANPWLILSEDRRQVRLGDTQQSIPGNEERFDSYPMVLGAQHFHSGKHYWEVDVTGKEAWDLGVCRDSVRRKGHFLLSSKSGFWTIWLWNKQKYEAGTYPQTPLHLQVPPCQVGIFLDYEAGMVSFYNITDHGSLIYSFSECAFTGPLRPFFSPGFNDGGKNTAPLTLCPLNIGSQGSTDY
notes: TRIM21, human; also called purified TRIM21; source: purified; recombinant human TRIM21 bought: BIOTREND Chemicals (pro-328)

Changes are numbered by the printed parent chain.
